# According to patent US11197857B2, “Combination therapy” (GlaxoSmithKline Intellectual Property Development Limited, priority 2016, dated 2021):
# Sequences of proteins named here, by UniProt entry; tags and fusion partners are left off. A change or cut given only in a name is not applied to a line headed by its entry.
# UniProt Q92800, whole entry: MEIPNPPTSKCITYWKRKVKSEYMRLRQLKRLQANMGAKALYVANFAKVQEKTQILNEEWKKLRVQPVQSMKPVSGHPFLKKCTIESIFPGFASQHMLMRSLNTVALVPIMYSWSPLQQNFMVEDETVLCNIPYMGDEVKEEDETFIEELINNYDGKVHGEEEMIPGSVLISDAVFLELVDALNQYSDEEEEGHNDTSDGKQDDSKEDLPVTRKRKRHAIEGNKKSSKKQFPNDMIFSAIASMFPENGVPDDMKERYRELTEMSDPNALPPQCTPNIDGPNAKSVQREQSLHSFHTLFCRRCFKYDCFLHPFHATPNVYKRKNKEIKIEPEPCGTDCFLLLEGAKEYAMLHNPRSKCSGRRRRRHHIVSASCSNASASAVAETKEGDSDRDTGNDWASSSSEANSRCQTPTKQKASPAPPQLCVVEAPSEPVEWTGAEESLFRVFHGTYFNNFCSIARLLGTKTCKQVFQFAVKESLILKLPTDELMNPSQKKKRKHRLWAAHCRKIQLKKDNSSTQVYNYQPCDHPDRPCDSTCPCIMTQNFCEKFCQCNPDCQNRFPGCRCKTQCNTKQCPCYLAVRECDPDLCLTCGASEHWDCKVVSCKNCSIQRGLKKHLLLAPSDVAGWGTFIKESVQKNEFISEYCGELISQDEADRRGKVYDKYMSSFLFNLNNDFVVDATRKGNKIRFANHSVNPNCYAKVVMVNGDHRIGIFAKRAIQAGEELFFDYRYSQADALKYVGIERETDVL
# UniProt Q9NRG4: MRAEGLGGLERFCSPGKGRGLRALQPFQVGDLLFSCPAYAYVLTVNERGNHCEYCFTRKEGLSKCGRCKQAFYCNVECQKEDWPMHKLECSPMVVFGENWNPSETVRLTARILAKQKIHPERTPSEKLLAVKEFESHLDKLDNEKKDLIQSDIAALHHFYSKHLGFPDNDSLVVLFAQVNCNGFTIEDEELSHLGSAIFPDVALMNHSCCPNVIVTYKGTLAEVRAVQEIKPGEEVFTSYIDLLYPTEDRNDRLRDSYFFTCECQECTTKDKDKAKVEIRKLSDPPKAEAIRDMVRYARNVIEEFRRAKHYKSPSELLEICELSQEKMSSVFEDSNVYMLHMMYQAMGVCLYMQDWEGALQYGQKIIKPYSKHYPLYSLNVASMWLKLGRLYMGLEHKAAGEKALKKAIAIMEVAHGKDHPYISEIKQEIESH
# UniProt Q15910, whole entry: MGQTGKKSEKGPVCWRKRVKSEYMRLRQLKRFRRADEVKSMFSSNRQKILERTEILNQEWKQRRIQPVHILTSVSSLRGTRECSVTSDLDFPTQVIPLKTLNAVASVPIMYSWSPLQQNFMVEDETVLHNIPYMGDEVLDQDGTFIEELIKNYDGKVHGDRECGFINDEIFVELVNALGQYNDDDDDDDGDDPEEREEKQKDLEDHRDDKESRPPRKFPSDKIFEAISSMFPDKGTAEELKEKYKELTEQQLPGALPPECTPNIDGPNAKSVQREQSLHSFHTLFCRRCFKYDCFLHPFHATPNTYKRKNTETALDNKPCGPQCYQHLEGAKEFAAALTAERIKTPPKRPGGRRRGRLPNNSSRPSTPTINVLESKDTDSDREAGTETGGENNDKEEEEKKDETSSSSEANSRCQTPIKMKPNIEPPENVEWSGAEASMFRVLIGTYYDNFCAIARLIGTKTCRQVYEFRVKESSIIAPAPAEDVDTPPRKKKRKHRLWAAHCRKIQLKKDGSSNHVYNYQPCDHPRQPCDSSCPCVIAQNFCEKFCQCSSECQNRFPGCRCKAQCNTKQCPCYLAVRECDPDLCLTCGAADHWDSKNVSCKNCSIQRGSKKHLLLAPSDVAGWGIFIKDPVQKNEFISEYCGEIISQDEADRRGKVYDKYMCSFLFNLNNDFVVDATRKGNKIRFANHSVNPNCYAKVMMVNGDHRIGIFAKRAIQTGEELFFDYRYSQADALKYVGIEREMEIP
# UniProt Q96KQ7: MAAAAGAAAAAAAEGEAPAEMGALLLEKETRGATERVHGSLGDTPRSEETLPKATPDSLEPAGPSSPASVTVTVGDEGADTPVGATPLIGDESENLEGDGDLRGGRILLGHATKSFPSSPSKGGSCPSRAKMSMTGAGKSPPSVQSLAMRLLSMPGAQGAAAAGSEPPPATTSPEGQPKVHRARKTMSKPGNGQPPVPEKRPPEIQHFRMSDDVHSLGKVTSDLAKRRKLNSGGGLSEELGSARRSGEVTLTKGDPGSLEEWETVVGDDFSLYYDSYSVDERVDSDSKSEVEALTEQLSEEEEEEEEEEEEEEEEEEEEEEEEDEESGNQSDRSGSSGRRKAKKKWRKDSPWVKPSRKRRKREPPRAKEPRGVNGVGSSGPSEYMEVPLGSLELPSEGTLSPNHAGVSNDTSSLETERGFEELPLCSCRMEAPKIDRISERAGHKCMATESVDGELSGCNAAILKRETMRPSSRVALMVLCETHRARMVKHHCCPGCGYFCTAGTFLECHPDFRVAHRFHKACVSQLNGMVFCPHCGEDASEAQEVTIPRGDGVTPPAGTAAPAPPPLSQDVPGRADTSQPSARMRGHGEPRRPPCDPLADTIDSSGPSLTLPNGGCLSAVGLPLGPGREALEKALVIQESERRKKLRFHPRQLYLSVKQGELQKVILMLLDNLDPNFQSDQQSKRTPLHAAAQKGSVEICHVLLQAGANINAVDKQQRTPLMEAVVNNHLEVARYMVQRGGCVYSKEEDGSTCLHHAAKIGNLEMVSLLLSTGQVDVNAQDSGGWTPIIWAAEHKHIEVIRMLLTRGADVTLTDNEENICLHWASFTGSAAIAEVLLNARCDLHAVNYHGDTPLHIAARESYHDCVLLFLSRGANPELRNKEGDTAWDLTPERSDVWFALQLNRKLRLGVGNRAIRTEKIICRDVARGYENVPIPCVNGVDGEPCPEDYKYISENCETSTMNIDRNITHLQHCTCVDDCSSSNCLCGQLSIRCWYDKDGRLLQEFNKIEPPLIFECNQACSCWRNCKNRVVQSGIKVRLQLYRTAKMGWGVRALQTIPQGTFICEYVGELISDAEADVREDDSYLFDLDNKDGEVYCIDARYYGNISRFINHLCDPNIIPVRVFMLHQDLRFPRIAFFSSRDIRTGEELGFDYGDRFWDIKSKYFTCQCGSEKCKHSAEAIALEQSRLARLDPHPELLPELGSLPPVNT
# UniProt Q8TEK3: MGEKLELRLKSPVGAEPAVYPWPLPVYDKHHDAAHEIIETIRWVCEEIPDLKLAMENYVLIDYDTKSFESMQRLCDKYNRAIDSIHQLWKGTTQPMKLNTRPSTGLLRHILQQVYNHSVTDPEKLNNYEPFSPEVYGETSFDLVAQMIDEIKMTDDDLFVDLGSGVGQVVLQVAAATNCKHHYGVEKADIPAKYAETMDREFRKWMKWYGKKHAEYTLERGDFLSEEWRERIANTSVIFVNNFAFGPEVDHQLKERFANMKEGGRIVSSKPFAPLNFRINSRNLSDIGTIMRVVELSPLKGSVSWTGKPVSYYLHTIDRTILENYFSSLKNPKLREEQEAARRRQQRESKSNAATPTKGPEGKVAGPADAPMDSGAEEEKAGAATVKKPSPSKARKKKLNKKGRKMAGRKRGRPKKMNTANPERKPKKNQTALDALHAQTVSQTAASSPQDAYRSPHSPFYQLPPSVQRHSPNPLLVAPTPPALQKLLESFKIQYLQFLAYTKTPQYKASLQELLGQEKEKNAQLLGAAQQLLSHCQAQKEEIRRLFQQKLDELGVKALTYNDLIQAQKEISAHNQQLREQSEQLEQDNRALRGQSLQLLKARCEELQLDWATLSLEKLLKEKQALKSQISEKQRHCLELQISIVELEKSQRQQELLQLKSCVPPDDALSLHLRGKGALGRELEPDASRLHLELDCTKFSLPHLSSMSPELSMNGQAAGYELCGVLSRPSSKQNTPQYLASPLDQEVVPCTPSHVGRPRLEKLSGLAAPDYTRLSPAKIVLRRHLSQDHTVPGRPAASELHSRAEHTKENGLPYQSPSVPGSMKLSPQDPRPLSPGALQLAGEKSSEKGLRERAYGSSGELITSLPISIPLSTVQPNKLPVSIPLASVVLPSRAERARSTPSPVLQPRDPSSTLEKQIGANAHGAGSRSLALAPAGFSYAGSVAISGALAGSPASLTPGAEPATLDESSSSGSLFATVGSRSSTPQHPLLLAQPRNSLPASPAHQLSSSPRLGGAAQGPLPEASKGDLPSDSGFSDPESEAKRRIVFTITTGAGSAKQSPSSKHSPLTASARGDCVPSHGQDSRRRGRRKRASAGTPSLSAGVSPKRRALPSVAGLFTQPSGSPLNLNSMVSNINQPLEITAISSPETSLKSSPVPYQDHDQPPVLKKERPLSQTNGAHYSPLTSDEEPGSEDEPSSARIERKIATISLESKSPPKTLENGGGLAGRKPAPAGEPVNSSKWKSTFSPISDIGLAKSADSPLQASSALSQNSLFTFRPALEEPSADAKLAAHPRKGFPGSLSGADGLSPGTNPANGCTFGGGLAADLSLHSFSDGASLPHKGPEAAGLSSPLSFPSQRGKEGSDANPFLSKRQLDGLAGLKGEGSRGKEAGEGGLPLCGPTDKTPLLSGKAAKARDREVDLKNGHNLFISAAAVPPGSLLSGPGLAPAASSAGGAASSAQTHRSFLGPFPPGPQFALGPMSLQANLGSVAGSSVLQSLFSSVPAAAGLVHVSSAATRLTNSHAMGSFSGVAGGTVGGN
# UniProt Q9H9B1: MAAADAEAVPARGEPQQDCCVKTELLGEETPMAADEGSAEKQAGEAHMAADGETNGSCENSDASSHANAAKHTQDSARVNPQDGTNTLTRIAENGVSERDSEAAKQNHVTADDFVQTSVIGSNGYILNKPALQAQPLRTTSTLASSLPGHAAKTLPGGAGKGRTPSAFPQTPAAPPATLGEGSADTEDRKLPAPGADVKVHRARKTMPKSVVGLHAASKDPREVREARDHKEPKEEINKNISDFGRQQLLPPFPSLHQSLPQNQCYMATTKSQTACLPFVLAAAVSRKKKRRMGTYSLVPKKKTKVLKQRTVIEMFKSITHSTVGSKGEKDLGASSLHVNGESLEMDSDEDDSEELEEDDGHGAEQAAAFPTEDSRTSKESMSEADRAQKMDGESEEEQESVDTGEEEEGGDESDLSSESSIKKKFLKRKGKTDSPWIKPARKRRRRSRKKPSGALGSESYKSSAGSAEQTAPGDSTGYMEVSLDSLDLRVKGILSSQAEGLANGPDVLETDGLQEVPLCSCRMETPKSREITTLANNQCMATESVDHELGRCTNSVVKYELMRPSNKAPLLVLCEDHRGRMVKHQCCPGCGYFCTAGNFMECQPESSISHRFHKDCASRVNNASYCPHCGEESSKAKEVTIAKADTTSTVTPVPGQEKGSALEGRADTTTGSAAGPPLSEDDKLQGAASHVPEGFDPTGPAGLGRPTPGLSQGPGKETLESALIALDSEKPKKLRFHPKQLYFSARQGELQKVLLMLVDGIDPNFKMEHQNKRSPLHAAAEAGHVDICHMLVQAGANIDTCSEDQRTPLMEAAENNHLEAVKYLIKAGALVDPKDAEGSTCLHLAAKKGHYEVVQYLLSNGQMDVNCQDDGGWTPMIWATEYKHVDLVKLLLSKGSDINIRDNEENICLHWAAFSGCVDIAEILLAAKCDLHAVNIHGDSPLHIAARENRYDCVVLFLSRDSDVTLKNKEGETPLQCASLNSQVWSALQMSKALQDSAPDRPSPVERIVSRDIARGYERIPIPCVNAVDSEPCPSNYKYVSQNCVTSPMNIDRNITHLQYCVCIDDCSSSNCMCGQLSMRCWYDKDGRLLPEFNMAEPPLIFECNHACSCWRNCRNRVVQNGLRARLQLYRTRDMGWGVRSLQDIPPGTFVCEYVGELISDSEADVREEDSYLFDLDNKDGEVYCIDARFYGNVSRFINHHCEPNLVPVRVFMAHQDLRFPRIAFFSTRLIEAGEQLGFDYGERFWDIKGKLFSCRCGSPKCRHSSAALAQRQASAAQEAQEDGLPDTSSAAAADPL
# UniProt Q9NQR1: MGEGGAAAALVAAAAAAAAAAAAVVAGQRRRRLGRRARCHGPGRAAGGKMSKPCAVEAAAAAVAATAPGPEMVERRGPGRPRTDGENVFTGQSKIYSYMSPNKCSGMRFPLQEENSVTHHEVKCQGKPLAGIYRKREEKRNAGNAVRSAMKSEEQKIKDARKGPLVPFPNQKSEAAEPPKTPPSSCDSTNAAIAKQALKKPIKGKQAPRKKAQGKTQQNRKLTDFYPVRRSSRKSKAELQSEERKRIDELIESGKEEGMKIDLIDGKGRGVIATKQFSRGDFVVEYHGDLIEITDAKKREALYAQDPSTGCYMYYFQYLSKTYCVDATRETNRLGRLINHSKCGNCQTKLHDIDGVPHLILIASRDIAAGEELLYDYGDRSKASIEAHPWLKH
# What was measured:
# [1] = biological target: T1, PRDM9 (Homo sapiens, UniProt Q9NQV7); settings: 10 μM; SAM 1 μM; Histone H3
# [2] = biological target: T1, PRDM9; test: biochemical; settings: read-out: Average % Inhibition, 10 μM; SAM 1 μM; Histone H3
# [3] = biological target: NSD2 (Homo sapiens, UniProt O96028); test: biochemical; settings: read-out: Average % Inhibition
# [4] = biological target: MLL3 Complex (Homo sapiens, UniProt Q8NEZ4); test: biochemical; settings: read-out: Average % Inhibition
# [5] = biological target: EZH1 Complex (Homo sapiens, UniProt Q92800); test: biochemical; settings: read-out: Average % Inhibition
# [6] = biological target: SMYD2 (Homo sapiens, UniProt Q9NRG4); test: biochemical; settings: read-out: Average % Inhibition
# [7] = biological target: EZH2 Complex (Homo sapiens, UniProt Q15910); test: biochemical; settings: read-out: Average % Inhibition
# [8] = biological target: SET1B Complex (Homo sapiens, UniProt Q9UPS6); test: biochemical; settings: read-out: Average % Inhibition
# [9] = biological target: G9a (Homo sapiens, UniProt Q96KQ7); test: biochemical; settings: read-out: Average % Inhibition
# [10] = biological target: SET7 (Homo sapiens, UniProt Q8WTS6); test: biochemical; settings: read-out: Average % Inhibition
# [11] = biological target: SETD2 (Homo sapiens, UniProt Q9BYW2); test: biochemical; settings: read-out: Average % Inhibition
# [12] = biological target: Dot1L (Homo sapiens, UniProt Q8TEK3); test: biochemical; settings: read-out: Average % Inhibition
# [13] = biological target: GLP (Homo sapiens, UniProt Q9H9B1); test: biochemical; settings: read-out: Average % Inhibition
# [14] = biological target: MLL1 Complex (Homo sapiens, UniProt Q03164); test: biochemical; settings: read-out: Average % Inhibition
# [15] = biological target: SUV39H1 (Homo sapiens, UniProt O43463); test: biochemical; settings: read-out: Average % Inhibition
# [16] = biological target: SET8 (Homo sapiens, UniProt Q9NQR1); test: biochemical; settings: read-out: Average % Inhibition
# [17] = biological target: SUV39H2 (Homo sapiens, UniProt Q9H5I1); test: biochemical; settings: read-out: Average % Inhibition
smiles,measurement,setting,value
CCOCC1(COCC)CCC(c2n[nH]cc2CN(C)CCNC)CC1 [Compound A],Average % Inhibition,[1],17.99%
same,inhibition at 10 µM,[2],18%
same,inhibition at 10 µM,[3],15%
same,inhibition at 10 µM,[4],13.7%
same,inhibition at 10 µM,[5],12%
same,inhibition at 10 µM,[6],9.26%
same,inhibition at 10 µM,[7],8.17%
same,inhibition at 10 µM,[8],5.96%
same,inhibition at 10 µM,[9],3.72%
same,inhibition at 10 µM,[10],3.47%
same,inhibition at 10 µM,[11],3.15%
same,inhibition at 10 µM,[12],2.75%
same,inhibition at 10 µM,[13],1.86%
same,inhibition at 10 µM,[14],0.27%
same,inhibition at 10 µM,[15],0%
same,inhibition at 10 µM,[16],0%
same,inhibition at 10 µM,[17],0%
